Measured values from patent publication US11142554B2 (MASSACHUSETTS INSTITUTE OF TECHNOLOGY, priority 2015, dated 2021).

Chains of the proteins cited; added tags and fusions are not shown. Lines headed by an entry give the natural chain unless they say otherwise; changes in a name come on top. Residues count along the entry.
UniProt P10415, whole entry, looked up: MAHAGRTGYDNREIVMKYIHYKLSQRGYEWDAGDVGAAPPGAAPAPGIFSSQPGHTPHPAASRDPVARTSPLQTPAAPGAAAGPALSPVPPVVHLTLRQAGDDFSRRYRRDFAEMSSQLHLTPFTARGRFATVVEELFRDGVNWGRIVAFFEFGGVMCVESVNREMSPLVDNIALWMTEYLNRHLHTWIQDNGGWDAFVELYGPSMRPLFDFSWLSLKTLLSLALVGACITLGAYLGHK
UniProt Q92843, 2-193 limits assumed: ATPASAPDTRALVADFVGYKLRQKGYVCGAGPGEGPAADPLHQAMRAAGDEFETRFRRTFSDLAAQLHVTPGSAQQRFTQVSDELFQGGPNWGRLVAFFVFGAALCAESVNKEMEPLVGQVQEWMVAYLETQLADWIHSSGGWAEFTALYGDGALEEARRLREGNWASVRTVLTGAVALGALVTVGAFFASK
UniProt Q07820, whole entry, looked up: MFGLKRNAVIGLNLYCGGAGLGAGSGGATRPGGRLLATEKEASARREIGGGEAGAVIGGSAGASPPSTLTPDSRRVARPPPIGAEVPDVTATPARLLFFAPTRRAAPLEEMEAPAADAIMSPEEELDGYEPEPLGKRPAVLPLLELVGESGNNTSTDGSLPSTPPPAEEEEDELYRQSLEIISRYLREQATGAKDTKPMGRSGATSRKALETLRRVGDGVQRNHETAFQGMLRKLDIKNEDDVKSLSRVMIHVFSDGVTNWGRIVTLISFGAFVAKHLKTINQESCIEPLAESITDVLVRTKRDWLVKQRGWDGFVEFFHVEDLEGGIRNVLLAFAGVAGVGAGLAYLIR
UniProt Q16548: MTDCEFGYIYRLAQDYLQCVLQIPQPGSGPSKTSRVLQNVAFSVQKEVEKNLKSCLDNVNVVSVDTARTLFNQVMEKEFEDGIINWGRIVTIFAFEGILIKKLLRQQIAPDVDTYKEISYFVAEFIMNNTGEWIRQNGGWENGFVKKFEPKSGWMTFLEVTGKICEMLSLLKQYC
UniProt Q07817, whole entry, looked up: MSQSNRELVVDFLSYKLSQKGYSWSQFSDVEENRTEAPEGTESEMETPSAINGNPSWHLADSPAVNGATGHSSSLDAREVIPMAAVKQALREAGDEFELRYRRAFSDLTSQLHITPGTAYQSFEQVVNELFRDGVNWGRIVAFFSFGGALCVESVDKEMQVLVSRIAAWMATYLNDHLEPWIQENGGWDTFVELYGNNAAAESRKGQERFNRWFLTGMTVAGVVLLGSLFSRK

Tests used:
[1] = target: Bcl-2 (Homo sapiens, UniProt P10415); test: receptor | Bcl-2
[2] = target: Bcl-w (Homo sapiens, UniProt Q92843); test: receptor | Bcl-w
[3] = target: Mcl-1 (Homo sapiens, UniProt Q07820); test: receptor | Mcl-1; conditions: read-out: receptor | Mcl-1
[4] = target: Bfl-1 (Homo sapiens, UniProt Q16548); test: receptor | Bfl-1
[5] = target: Bcl-xL (Homo sapiens, UniProt Q07817); test: receptor | Bcl-xL

Sequence	Kd [1] [nM]	Kd [2] [nM]	Kd [3] [nM]	Kd [4] [nM]	Kd [5] [nM]
RPEIWMTQGLRRLGDEINAYYAR [MS1]	2300 ± 1500	1300 ± 230	–	–	–
RPEIWLTQSLQRLGDEINAYYAR [MS2]	6200 ± 4100	250 ± 76	1.5 ± 1.2	3100 ± 2300	1400 ± 500
